Among the data in PubChem BioAssay AID588855 (National Center for Advancing Translational Sciences (NCATS), 2011) are Potency values, retold here.

This is a selection; strong and weak results do not stand in their true shares. Inconclusive results are not listed. Entries that show only a call come without a potency. The source made the active and inactive calls. The call rests on the fitted dose curve; in most records, active means well fitted inhibition curve with a large enough effect; inconclusive means small, poorly fitted or top-dose-only effect; inactive means no such curve, though single readings can be large or run the other way.
Potency means the concentration at half of the fitted maximal effect.

A short description of the test: qHTS for Inhibitors of TGF-b. Further: nearly all actives have a fitted effect of over 65% in size. The note with it: HepG2 CAGA-GFP TGF-b/SMAD3 reporter, GFP fluorescence, 18 h, TGF-beta stimulated, 500 pg/mL final; series mostly up to 46.1 µM.
As to `CN(C(=O)Cc1ccc(Cl)c(Cl)c1)[C@H]1CC[C@@]2(CCCO2)C[C@@H]1N1CCCC1`, the Potency result was “inactive”. The result for `O=C(OC1CN2CCC1CC2)c1ccc(Cl)cc1` (stereo not given) reads “inactive”; that for `COc1cc(C(=O)NCC2(N3CCOCC3)CCCCC2)cc(Cl)c1OC(C)C`, “inactive”; that for `O=[As](O)(O)c1cccnc1`, “inactive”. The entry for `CS(=O)(=O)c1ccc(Cl)c(NC(=O)COC(=O)C(O)(c2ccccc2)c2ccccc2)c1` is “inactive”; for `O=[As](O)(c1cccc(O)c1)c1cccc(O)c1` it is “inactive”; for `Cc1cccc(OCC(=O)OC2CN3CCC2CC3)c1` (stereo not given) it is “inactive”. For the molecule `Nc1cccc2c([As](=O)(O)O)cccc12`, the Potency result was “inactive”. The result for `Cc1ccc(NCCc2c([N+](=O)[O-])cc([N+](=O)[O-])cc2[N+](=O)[O-])cc1` reads active: 12.6 µM; that for `CCCOP(=S)(Nc1nc(N)cc(=O)[nH]1)OCCC`, “inactive”; that for `COc1cc(C2NCCC3(OCCO3)C2(C)C)cc(OC)c1OC` (stereo not given), “inactive”. With `CCOP(=O)(Nc1cccc2ccccc12)OCC`, the Potency entry was “inactive”.

As for `Cc1c2c(nc3ccccc13)SC(C(Cl)Cl)C2` (stereo not given), the Potency entry is “inactive”.

On to `O=C(OC1CN2CCC1CC2)C12CC3CC(CC(C3)C1)C2` (stereo not given), for which the Potency entry was “inactive”. For `Cc1cc(=O)[nH]c(N[N+](=O)[O-])n1`, the Potency entry was “inactive”. The result for `O=P1(N(CCCl)CCCl)Nc2ccccc2N1` reads “inactive”; that for `O=P1(N(CCCl)CCCl)OCCCN1CCCl` (stereo not given), “inactive”. Take `COc1ccc2nc(NP(=O)(c3ccccc3)c3ccccc3)sc2c1`: the Potency result is “inactive”. The entry for `COc1cc(I)ccc1[As](=O)(O)O` is “inactive”.

In the case of `COc1ccc(N/C(=N/P(=O)(N2CCOCC2)N2CCOCC2)N2CCOCC2)cc1`, the Potency result is “inactive”. For `C[As](=O)(O)c1cccc(C(=O)O)c1`, the Potency result was “inactive”. Consider `O=[As](O)(c1ccc(O)cc1)c1ccccc1O`, for which the Potency result is “inactive”. For the molecule `COc1cc(C(=O)NCC2(N3CCOCC3)CCCCC2)ccc1OCC(C)C`, the Potency entry is “inactive”. The entry for `Cc1ccc(OP(=O)(Nc2ccc([N+](=O)[O-])cn2)Oc2ccc(C)cc2)cc1` is “inactive”. As to `ClCCN(CCCl)c1ccc(CC2C=CC=C2)cc1`, the Potency result is “inactive”.

For `Cc1ccc2nc3c(c(C)c2c1)CC(C(Cl)Cl)S3` (stereo not given), the Potency entry is “inactive”. Turning to `O=Cc1ccc(NCCCl)cc1`, the Potency result is “inactive”. The entry for `ClCCSc1nnc(-c2cccnc2)o1` is “inactive”; for `CC(C)c1ccc(OP(=O)(Nc2ccccn2)Oc2ccccc2F)cc1` (stereo not given) it is “inactive”. Consider `COC(=O)C1(C)COP(=O)(N2CCCCCC2)OC1` (stereo not given), for which the Potency result was “inactive”.

Regarding `O=C(OC1CN2CCC1CC2)c1cccc2[nH]cnc12` (stereo not given), the Potency entry was “inactive”. The result for `CCN(CC)C(=S)SC(NC=O)C(Cl)(Cl)Cl` (stereo not given) reads “inactive”.

With `CC(C)NC(=O)NP(=O)(Oc1ccccc1)Oc1ccccc1`, the Potency result was “inactive”. Regarding `O=[N+]([O-])c1cc([N+](=O)[O-])c(-c2ccn[nH]2)s1`, the Potency is active: 10 µM. For `O=C(O)C(O)c1ccc(N(CCCl)CCCl)cc1` (stereo not given), the Potency result was “inactive”. Turning to `CCOC(=O)Nc1ccc([As](=O)(O)O)c(O)c1`, the Potency result was “inactive”. Consider `CC1CCNP(=O)(N(CCCl)CCCl)O1` (stereo not given), for which the Potency result was “inactive”. The result for `COP(=O)(OC)N1CC1c1ccccc1` (stereo not given) reads “inactive”; that for `Cc1cc(SC(NC(=O)c2ccccc2)C(Cl)(Cl)Cl)nc(C(C)C)n1` (stereo not given), “inactive”; that for `CCOC(=O)Nc1cccc([As](=O)(O)O)c1`, “inactive”. As for `Cc1cc(SC(NC=O)C(Cl)(Cl)Cl)ncn1` (stereo not given), the Potency result is “inactive”.

Regarding `O=P(Nc1ccccn1)(c1cccc2ccccc12)c1cccc2ccccc12`, the Potency entry is “inactive”.

Regarding `O=[N+]([O-])c1ccc(Nc2ccc(Oc3ccc([N+](=O)[O-])cc3[N+](=O)[O-])cc2)c([N+](=O)[O-])c1`, the Potency result was “inactive”. The entry for `COP1(=S)c2c(C)nn(CCC#N)c2N=C(c2ccc(F)cc2)N1C` (stereo not given) is “inactive”; for `COC(=O)C1(C)COP(=O)(N2CCCC2)OC1` (stereo not given) it is “inactive”. The result for `O=C(COc1ccccc1)OC1CN2CCC1CC2` (stereo not given) reads “inactive”; that for `O=C(OC1CN2CCC1CC2)c1cccc([N+](=O)[O-])c1` (stereo not given), “inactive”; that for `CCOC(=O)c1ccc(NC(=O)C(C)(CCl)SC)cc1` (stereo not given), “inactive”. With `CCC(C)N(CC(C)C)C(=S)SC(NC(C)=O)C(Cl)(Cl)Cl` (stereo not given), the Potency entry was “inactive”. The entry for `CCOP(=O)(Nc1cccc2cccnc12)OCC` is “inactive”. On to `Cc1ccc(NP(=O)(Oc2ccccc2)Oc2ccccc2)nc1`, for which the Potency entry was “inactive”. The entry for `O=[N+]([O-])c1cc([N+](=O)[O-])c(CCNc2ccccc2)c([N+](=O)[O-])c1` is “inactive”; for `CCc1nc2c(n1)c1c(non1O)c1c2no[n+]1[O-]` it is active: 15.8 µM; for `CC(=O)N1C2C3N(C(C)=O)C1C1N(C(C)=O)C(C(N1C(C)=O)N3C(C)=O)N2C(C)=O` it is “inactive”.

As for `O=[N+]([O-])c1cccc2n[nH]nc12`, the Potency result is “inactive”. As to `CCN(/C(=N/P(=O)(N1CCOCC1)N1CCOCC1)N1CCOCC1)c1ccc(OC)cc1`, the Potency entry was “inactive”. With `Nc1ccc([As](=O)(O)c2ccc(N)cc2)cc1`, the Potency entry is “inactive”. As to `c1cc(-c2nn[nH]n2)ccc1-c1nn[nH]n1`, the Potency result is “inactive”. The result for `CC1CCN(C(=O)Oc2c(Cl)cc(Cl)c3cccnc23)CC1` reads “inactive”; that for `CC(C)=N/N=C(\N)N[N+](=O)[O-]`, “inactive”.

On to `CC(C)c1nc(Nc2ccccc2)n(P(=O)(N(C)C)N(C)C)n1`, for which the Potency entry is “inactive”. In the case of `CN(C)C(=O)OCCc1n(C)cc[n+]1C`, the Potency result is “inactive”. The result for `Cc1cc(C=O)ccc1N(CCCl)CCCl` reads “inactive”; that for `O=C(Nc1cc([As](=O)(O)O)ccc1O)c1ccccc1`, “inactive”; that for `O=P(/N=c1/nc(-c2ccccc2)n(-c2ccccc2)s1)(Nc1ccccc1)Nc1ccccc1`, “inactive”. Consider `O=[N+]([O-])c1ncn(CCn2ncnc2[N+](=O)[O-])n1`, for which the Potency entry is “inactive”.

Turning to `CC(C)(C)C(=O)NC(Sc1ccncn1)C(Cl)(Cl)Cl` (stereo not given), the Potency result is “inactive”. The entry for `O=[N+]([O-])c1cccc(NC2=NCC(CBr)S2)c1` (stereo not given) is “inactive”.

On to `COC(=O)C1(C)COP(=O)(Nc2ccccc2)OC1` (stereo not given), for which the Potency entry was “inactive”.

For the molecule `CN(C)P(=O)(N(C)C)n1c(Nc2ccccc2)nnc1-c1ccccc1`, the Potency entry is “inactive”.

For `O=C(O)c1ccccc1[As](=O)(O)O`, the Potency entry was “inactive”. The result for `CC(=O)Nc1ccc([As](=O)(O)O)cc1` reads “inactive”; that for `CCCC1OP(N)(=O)OCC1CC` (stereo not given), “inactive”; that for `CCOP(=O)(Nc1ccccc1)OCC`, “inactive”. For `Cc1cc(SC(NC(=O)c2ccc(F)cc2)C(Cl)(Cl)Cl)ncn1` (stereo not given), the Potency entry was “inactive”. Take `CN(C(=O)Cc1ccc(Cl)c(Cl)c1)[C@H]1CCCC[C@@H]1N1CCCC1`: the Potency entry was “inactive”. For the molecule `Cc1ccc(NP(=O)(Oc2ccccc2F)Oc2ccccc2F)nc1`, the Potency result is “inactive”. The result for `Nc1c(O)cc([N+](=O)[O-])cc1[N+](=O)[O-]` reads “inactive”. The entry for `Nc1cccc2ccc([As](=O)(O)O)cc12` is “inactive”; for `CCN(N=Nc1nonc1N)c1nonc1N` it is “inactive”. The result for `CN(C(=O)Cc1ccc(Cl)c(Cl)c1)[C@H]1CCCC[C@H]1N1CCCC1` reads “inactive”. Regarding `Cc1ccc(N/C(=N/P(=O)(N2CCOCC2)N2CCOCC2)N2CCOCC2)cc1`, the Potency entry is “inactive”.

As to `O=[N+]([O-])c1cc2c(cc1[N+](=O)[O-])OCO2`, the Potency entry was “inactive”. The entry for `NC(=O)c1cc([N+](=O)[O-])cc([N+](=O)[O-])c1N` is “inactive”; for `Clc1ccc(Cl)c(NC2=NCC(CBr)S2)c1` (stereo not given) it is “inactive”. For the molecule `CN1CCCC(OC(=O)C(c2ccccc2)c2ccccc2)C1` (stereo not given), the Potency result is “inactive”.

In the case of `COc1ccccc1OP(=O)(Nc1ccc(C)cn1)Oc1ccccc1OC`, the Potency result is “inactive”. The entry for `Cc1ccc(OP(=O)(Nc2nccs2)Oc2ccc(C)cc2)cc1` is “inactive”; for `Oc1ccccc1CNc1ccccn1` it is “inactive”; for `O=C(NC(Sc1ccncn1)C(Cl)(Cl)Cl)c1ccccc1` (stereo not given) it is “inactive”.

On to `CC(C)CC(=O)NC(Sc1ccc(Cl)cc1)C(Cl)(Cl)Cl` (stereo not given), for which the Potency result is “inactive”. `Nc1cc(N)c2nonc2c1[N+](=O)[O-]`: the Potency result is “inactive”. The entry for `O=[N+]([O-])C1C(O)C(O)C([N+](=O)[O-])C(O)C1O` (stereo not given) is “inactive”.

`O=P1(Nc2nc3ccc(Cl)cc3s2)COc2ccccc2O1` (stereo not given): the Potency entry is “inactive”. The result for `CCOc1ccc(C2=NCC(CBr)S2)cc1` (stereo not given) reads “inactive”; that for `CCc1cc(O)c([N+](=O)[O-])c(C)c1[N+](=O)[O-]`, “inactive”. The entry for `Cc1ccccc1CN(C)C(=O)COC(=O)C(O)(c1ccccc1)c1ccccc1` is “inactive”. The result for `C[C@@H]1C=CCP(=O)(Oc2ccccc2)O1` (stereo not given in full) reads “inactive”. On to `C[C@H]1OP(=O)(Oc2ccccc2)C[C@@H]2O[C@@H]21` (stereo not given in full), for which the Potency entry is “inactive”. Regarding `CC(=O)c1ccc(N2CC2c2ccncc2)cc1` (stereo not given), the Potency result is “inactive”. `COC(=O)C1(C)COP(=O)(NCc2ccccc2)OC1` (stereo not given): the Potency entry was “inactive”. The entry for `CC(=O)Nc1ccc([As](=O)(O)O)c(O)c1` is “inactive”; for `CC(=O)Nc1ccc(Oc2c([N+](=O)[O-])cc([N+](=O)[O-])cc2[N+](=O)[O-])cc1` it is “inactive”. The entry for `c1ccc(-c2nn[nH]n2)c(-c2nn[nH]n2)c1` is “inactive”; for `O=[N+]([O-])c1cc([N+](=O)[O-])c2nc[nH]c2c1` it is “inactive”; for `Cc1ccc(NP(=O)(Oc2cccc(C)c2)Oc2cccc(C)c2)nc1` it is “inactive”. In the case of `O=C(NC1CCS(=O)(=O)C1)NP(=S)(Oc1ccccc1)Oc1ccccc1` (stereo not given), the Potency entry was “inactive”. The result for `CCNC(=S)/N=C(\N)N[N+](=O)[O-]` reads “inactive”; that for `O=P1(N(CCCl)CCCl)OCCC2CCCCN21` (stereo not given), “inactive”. For `O=C(OC1CN2CCC1CC2)c1ccccc1` (stereo not given), the Potency entry is “inactive”. The entry for `CCC(=O)N1C2C3N(C(=O)CC)C1C1N(C(=O)CC)C(C(N1C(=O)CC)N3C(=O)CC)N2C(=O)CC` is “inactive”; for `COC(=O)c1cc2c(s1)N=C(c1ccccc1)N(C)P2(=O)N1CCOCC1` (stereo not given) it is “inactive”; for `CC(=O)NC(SC(=S)N(CC(C)C)CC(C)C)C(Cl)(Cl)Cl` (stereo not given) it is “inactive”. Turning to `Cc1ccccc1OP(=O)(Nc1ccccn1)Oc1ccccc1C`, the Potency entry was “inactive”. Regarding `CC(NC(=O)COC(=O)C(O)(c1ccccc1)c1ccccc1)c1ccccc1` (stereo not given), the Potency entry is “inactive”. The entry for `CN(C)C(=O)Oc1noc2ccccc12` is “inactive”; for `O=c1c2cc([N+](=O)[O-])ccc2[nH]c2c([N+](=O)[O-])cc([N+](=O)[O-])cc12` it is active: 3.55 µM; for `CN(C)C1(CNC(=O)c2ccc(Cl)c(S(N)(=O)=O)c2)CCCCC1` it is “inactive”.

Take `COc1ccc(N)c([N+](=O)[O-])c1[N+](=O)[O-]`: the Potency result is “inactive”. The result for `O=P(Nc1nc2ccccc2s1)(c1ccccc1)c1ccccc1` reads “inactive”; that for `C[C@H]1OP(=O)(Oc2ccccc2)[C@H](O)[C@H](O)[C@H]1N=[N+]=[N-]` (stereo not given in full), “inactive”; that for `O=[As](O)(c1ccccc1)c1ccc(O)cc1`, “inactive”. The result for `O=[N+]([O-])c1ncn(CCn2cnc([N+](=O)[O-])n2)n1` reads “inactive”; that for `CC(=O)NC(SC(=S)N(C)C)C(Cl)(Cl)Cl` (stereo not given), active: 5.01 µM. For the molecule `O=C(OC1CN2CCC1CC2)c1cccc(Cl)c1` (stereo not given), the Potency result was “inactive”. As to `Nc1ccc([As](=O)(O)c2ccc([N+](=O)[O-])cc2)cc1`, the Potency result was “inactive”. For the molecule `C(Cc1nn[nH]n1)Cc1nn[nH]n1`, the Potency result is “inactive”.

With `O=P(Nc1nccs1)(c1ccccc1)c1ccccc1`, the Potency result was “inactive”. For `CC(C)C(=O)NC(Sc1ccccc1)C(Cl)(Cl)Cl` (stereo not given), the Potency entry is “inactive”.

With `c1nnnn1CCn1cnnn1`, the Potency entry is “inactive”.
